Where two headings read alike, the source gives them in different places.
Legend:
[1] = test system: CD86 surface expression on B cells; assay: cells; conditions: Mus musculus, B-cell
[2] = MDCK, A to B
[3] = rat hepatocytes
[4] = human hepatocytes

Compound	IC50 ([1]; read-out: IC50 CD86)	also measured
Cn1cc(-c2cccc(N3CCc4c(sc5c4CCCC5)C3=O)c2CO)cc(Nc2ccncn2)c1=O [2b]	87 nM	IC50 ([1]; read-out: CD86 IC50): < 100 nM
Cn1cc(-c2cccc(N3CCn4c(cc5c4CCCC5)C3=O)c2CO)cc(Nc2ccncn2)c1=O [compound 3]	200 nM	
Cn1cc(-c2cccc(N3CCc4c(cc5n4CCCC5)C3=O)c2CO)cc(Nc2ccncn2)c1=O [compound 4]	480 nM	
Cn1cc(-c2cccc(N3CCn4c(nc5c4CCCC5)C3=O)c2CO)cc(Nc2ccncn2)c1=O [compound 5]	48600 nM	
Cn1cc(-c2cccc(N3CCc4c(nc5n4CCCC5)C3=O)c2CO)cc(Nc2ccncn2)c1=O [compound 6]	> 50000 nM	
Cn1cc(-c2cccc(N3CCc4c(sc5c4CC(C)(C)C5)C3=O)c2CO)cc(Nc2ccncn2)c1=O [compound 7]		Perm. [2]: MOD (MOD: 1–10 (10^–6 cm/s)); RHep (projected hepatic clearance) [3]: < 10
Cn1cc(-c2cccc(N3CCn4c(cc5c4CC(C)(C)C5)C3=O)c2CO)cc(Nc2ccncn2)c1=O [compound 8]	57 nM	IC50 ([1]; read-out: CD86 IC50): < 100 nM
Cn1cc(-c2cccc(N3Cc4cc(C(C)(C)C)ccc4C3=O)c2CO)cc(Nc2ccncn2)c1=O [compound 12]	1200 nM	
Cn1cc(-c2cccc(N3CCNc4cc(C(C)(C)C)ccc4C3=O)c2CO)cc(Nc2ccncn2)c1=O [compound 13]	171 nM	
Cn1cc(-c2cccc(N3CCOc4cc(C(C)(C)C)ccc4C3=O)c2CO)cc(Nc2ccncn2)c1=O [compound 14]	230 nM	
CN1CCN(c2ccc(Nc3cc(-c4cccc(N5CCc6c(sc7c6CC(C)(C)C7)C5=O)c4CO)cn(C)c3=O)nc2)CC1 [compound 15]	25 nM	HHep (projected hepatic clearance) [4]: < 6.2; RHep (projected hepatic clearance) [3]: < 10
Cn1cc(-c2cccc(N3CCc4c(sc5c4CC(C)(C)C5)C3=O)c2CO)cc(Nc2ccc(N3CCN(C4COC4)CC3)cn2)c1=O [compound 16]	6 nM	Perm. [2]: MOD (MOD: 1–10 (10^–6 cm/s)); RHep (projected hepatic clearance) [3]: < 10
